Results on nine molecules are retold here after PubChem BioAssay (Tox21).

By UniProt entry, the sequences of proteins in these tests, tags left out.
UniProt Q03181, whole entry: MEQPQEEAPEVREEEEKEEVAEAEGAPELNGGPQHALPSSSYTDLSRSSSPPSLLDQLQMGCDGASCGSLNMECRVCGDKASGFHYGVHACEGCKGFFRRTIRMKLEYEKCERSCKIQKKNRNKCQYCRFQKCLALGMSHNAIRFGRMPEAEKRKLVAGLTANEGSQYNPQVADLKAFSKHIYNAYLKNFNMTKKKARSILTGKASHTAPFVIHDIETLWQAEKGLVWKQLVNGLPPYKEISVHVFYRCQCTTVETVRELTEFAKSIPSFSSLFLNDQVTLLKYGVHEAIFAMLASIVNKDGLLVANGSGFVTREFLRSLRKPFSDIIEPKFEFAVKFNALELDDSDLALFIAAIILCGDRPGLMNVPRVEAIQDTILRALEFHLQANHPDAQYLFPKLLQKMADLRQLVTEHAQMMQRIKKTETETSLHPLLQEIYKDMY

The entries are a selection whose mix differs from that of the whole data set. Results filed as inconclusive are left out. Calls of active or inactive are those of the source. Calls follow the shape of the dose curve; as a rule, active = well fitted inhibition curve with a large enough effect in the signal ratio in the repeat runs (not every such curve was filed as active); inconclusive = weak or mixed curves, or effect the other way; inactive = no such curve, though single readings can be large or run the other way; the % refers to the signal ratio.
% is scaled to controls: 0 for no effect and ±100 for the full control effect.

The first test has as its target Peroxisome proliferator-activated receptor delta (Homo sapiens) (UniProt Q03181). In words: qHTS assay to identify small molecule antagonists of the peroxisome proliferator-activated receptor delta (PPARd) signaling pathway (AID 743215).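 Also: cells stimulated with agonist L165041 at 300 nM final during compound exposure.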 Conditions: HEK293H PPARd-UAS-bla, beta-lactamase FRET ratio, antagonist, 17 h; at 62 µM (top of the series). An excerpt: U.S. Tox21 Program National Center for Advancing Translational Sciences [NCATS] NIH Chemical Genomics Center [NCGC] U.S. Environmental Protection Agency [EPA] National Institutes of Environmental Health Sciences [NIEHS] National Toxicology Program [NTP] U.S. Food and Drug Administration [FDA] Tox21 Assay Overview: The peroxisome proliferator-activated receptors (PPARs) are lipid-activated transcription factors of the nuclear receptor superfamily with three distinct subtypes namely PPAR alpha, PPAR delta (PPARd) and PPAR gamma. All these subtypes heterodimerizes with Retinoid X receptor (RXR) and have different physiological functions. […] To identify the compounds that inhibit PPAR-delta signaling, GeneBLAzer PPAR delta UAS-bla HEK293H cell line (Invitrogen, Carlsbad, CA, USA) containing a beta-lactamase reporter gene under the control of an Upstream Activator Sequence (UAS) was used to screen the Tox21 compound library.
Tox21 Assay Protocol Summary: PPARd-bla cells were dispensed at 3000 cells/5uL/well in 1536-well black wall/clear bottom plates using a Multidrop Combi (Thermo Fisher Scientific, Waltham, MA) dispenser. After the assay plates were incubated at 37 C and 5% CO2 for 5 h, 23 nL of compounds dissolved in DMSO, positive controls or DMSO only was transferred to the assay plate by a Pintool station (Kalypsys, San Diego, CA), followed by addition of 1ul L165041 (300 nM, final concentration in the wells). The assay plates were incubated at 37 C for 17 h, and then 1 uL of LiveBLAzerTM B/G FRET substrate was added using a Bioraptr Flying Reagent Dispenser (FRD) workstation (Beckman Coulter, Indianapolis, IN, USA). The assay plates were incubated at room temperature for 2 h and fluorescence intensity was measured by an Envision plate reader (PerkinElmer, Shelton, CT).
On the technique in general: qHTS replaces the single test concentration by a dilution series.
As for `CCOC(=O)Cl`, the ratio activity, negative = inhibition is inactive: -11.7%.

`OCCSCCO`: the ratio activity, negative = inhibition was inactive: 2.48%.

`COP(C)(=O)OC`: the ratio activity, negative = inhibition is inactive: -8.07%.

With `COc1ccc([N+](=O)[O-])cc1[N+](=O)[O-]`, the ratio activity, negative = inhibition was inactive: 10.9%.

For `O=[N+]([O-])OCC(CO[N+](=O)[O-])(CO[N+](=O)[O-])CO[N+](=O)[O-]`, the ratio activity, negative = inhibition is inactive: 1.71%.

As to `CP(=O)(O)OCCC[Si](O)(O)O`, the ratio activity, negative = inhibition was inactive: 6.01%.

Turning to `[NH4+].[O-][Cl+3]([O-])([O-])[O-]`, the ratio activity, negative = inhibition is inactive: -10.1%.

With `C/C1=C2N=C(/C=C3N=C(/C(C)=C4\[N-][C@@](C)([C@@H]5N=C1[C@](C)(CCC(=O)NC[C@@H](C)OP(=O)([O-])O[C@H]1[C@@H](O)[C@@H](n6cnc7cc(C)c(C)cc76)O[C@@H]1CO)[C@H]5CC(N)=O)[C@@](C)(CC(N)=O)[C@@H]4CCC(N)=O)[C@@](C)(CC(N)=O)[C@@H]\3CCC(N)=O)C(C)(C)[C@@H]/2CCC(N)=O.[C-]#N.[Co+3]`, the ratio activity, negative = inhibition was inactive: -3.62%.

Staying with this test, now noted: HEK293H PPARd-UAS-bla, beta-lactamase FRET ratio, antagonist, 17 h; at 80.4 µM (top of the series).
Take `OCCSCCO`: the ratio activity, negative = inhibition was inactive: -2.09%.

In the case of `COP(C)(=O)OC`, the ratio activity, negative = inhibition was inactive: -6.76%.

As for `[NH4+].[O-][Cl+3]([O-])([O-])[O-]`, the ratio activity, negative = inhibition was inactive: -0.572%.

Take `N=C(N)N[N+](=O)[O-]`: the ratio activity, negative = inhibition is inactive: -0.446%.
